Source: patent US8957024B2, “Composition and methods for reducing opioid-induced pruritus” (priority 2011, dated 2015)
“Also recorded” adds a separate entry of the source.

Protein sequences, listed by entry. Tags and fused reporters are not part of them. Residues count along the entry.
UniProt P42866, whole entry: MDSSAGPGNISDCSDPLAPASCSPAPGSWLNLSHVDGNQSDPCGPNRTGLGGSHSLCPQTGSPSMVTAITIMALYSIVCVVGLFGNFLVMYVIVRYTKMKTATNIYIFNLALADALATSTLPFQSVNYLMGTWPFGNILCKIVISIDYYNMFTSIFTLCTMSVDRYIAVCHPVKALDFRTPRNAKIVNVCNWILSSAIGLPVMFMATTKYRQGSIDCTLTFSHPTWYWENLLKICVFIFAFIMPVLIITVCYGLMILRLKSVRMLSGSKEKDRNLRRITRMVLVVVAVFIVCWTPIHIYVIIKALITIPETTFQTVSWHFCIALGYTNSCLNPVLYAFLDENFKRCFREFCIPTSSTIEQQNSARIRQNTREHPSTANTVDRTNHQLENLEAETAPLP
UniProt P42866, 1-393 isoform P42866-9: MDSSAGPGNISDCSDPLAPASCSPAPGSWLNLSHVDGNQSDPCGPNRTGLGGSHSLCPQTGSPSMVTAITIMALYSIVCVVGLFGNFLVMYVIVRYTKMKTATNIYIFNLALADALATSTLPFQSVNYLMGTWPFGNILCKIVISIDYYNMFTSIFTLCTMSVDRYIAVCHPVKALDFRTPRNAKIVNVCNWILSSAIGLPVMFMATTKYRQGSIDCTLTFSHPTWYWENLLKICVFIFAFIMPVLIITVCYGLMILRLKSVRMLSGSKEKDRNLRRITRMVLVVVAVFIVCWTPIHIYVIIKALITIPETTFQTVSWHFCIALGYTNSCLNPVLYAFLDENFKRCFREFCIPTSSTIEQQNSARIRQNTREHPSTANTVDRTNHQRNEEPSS

Legend:
HA-MOR1 = target: T1, HA-MOR1 (Mus musculus, UniProt P42866); test: Receptor internalization assay (ELISA, immunofluorescence staining) in HEK 293 cells: MOR1; format: cell-based; conditions: HEK 293 cells expressing MOR1 only, or MOR1 and GRPR; agonist 1 μM
T1 construct: expressed in transfected cells

HA-MOR1D = target: T2, HA-MOR1D (Mus musculus, UniProt P42866); test: Receptor internalization assay (ELISA, immunofluorescence staining) in HEK 293 cells: MOR1D; format: cell-based; conditions: HEK 293 cells expressing MOR1D, or MOR1D and GRPR; agonist 1 μM
T2 construct: expressed in transfected cells

## CN1CC[C@]23c4c5ccc(O)c4O[C@H]2[C@@H](O)C=C[C@H]3[C@H]1C5 [morphine]
HA-MOR1
  agonist-induced MOR1 internalization: no internalization of HA-MOR1; also recorded: but not HA-MOR1
HA-MOR1D
  agonist-induced MOR1D internalization: significant MOR1D internalization; also recorded: endocytosis of HA-MOR1D
